Measured values reported in ChEMBL document CHEMBL4033785, “Increased Potency and Selectivity for Group III Metabotropic Glutamate Receptor Agonists Binding at Dual sites” (J Med Chem, 2018).

Experiments:
Homo sapiens [1] = organism: Homo sapiens; assay: (§1) Selectivity ratio of EC50 for mGlu8 (unknown origin) expressed in HEK293 cells coexpressing chimeric Gq/i protein assessed as increase in intracellular calcium accumulation to EC50 for mGlu4 (unknown origin) expressed in HEK293 cells coexpressing chimeric Gq/i protein assessed as increase in intracellular calcium accumulation; type: cell-based
Outline: (§2)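 Ratio of mGlu8 EC50 to mGlu4 EC50, both from the same functional assay. Both receptors were co-expressed in HEK293 cells with chimeric G-protein and EAAT3 and read by 3H-IP accumulation or by Fluo-4 Ca2+ release.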

Homo sapiens [2] = organism: Homo sapiens; assay: as §1, with “[3H]inositol phosphate” for “increase in intracellular calcium”; type: cell-based; outline: as §2

SMILES | Ratio EC50 (Homo sapiens [1]) | Ratio EC50 (Homo sapiens [2])
COc1cc([C@@H](O)P(=O)(O)CC[C@H](N)C(=O)O)cc([N+](=O)[O-])c1O | 25 | 
COc1cc([C@H](O)P(=O)(O)CC[C@H](N)C(=O)O)cc([N+](=O)[O-])c1O | 6 | 
COc1cc(C(O)P(=O)(O)CC[C@H](N)C(=O)O)cc([N+](=O)[O-])c1O (mixture of isomers) | 21.5 | 30
